Values quoted from earlier work, collected in article PMC6520732, “Exploring the Antiangiogenic Potential of Solomonamide A Bioactive Precursors: In Vitro and In Vivo Evidences of the Inhibitory Activity of Solo F-OH During Angiogenesis” (Marine Drugs, 2019).

Tested on: VEGFR2 TK activity
Conditions: read-out: IC50 of VEGFR2 TK activity; in vitro biochemical assays; ref [31],[32]; cited from earlier work

CCN(CC)CCNC(=O)c1c(C)[nH]c(/C=C2\C(=O)Nc3ccc(F)cc32)c1C [Sunitinib]
IC50: 80 nM
